Data reported in patent US20250257034A1, “INDOLE DERIVATIVES AS SEROTONERGIC AGENTS USEFUL FOR THE TREATMENT OF DISORDERS RELATED THERETO” (priority 2023, published 2025).
Like-named read-outs stand apart in the source and are kept apart here.

Sequences of proteins named here, by UniProt entry; tags and fusion partners are left off.
UniProt P08908, whole entry: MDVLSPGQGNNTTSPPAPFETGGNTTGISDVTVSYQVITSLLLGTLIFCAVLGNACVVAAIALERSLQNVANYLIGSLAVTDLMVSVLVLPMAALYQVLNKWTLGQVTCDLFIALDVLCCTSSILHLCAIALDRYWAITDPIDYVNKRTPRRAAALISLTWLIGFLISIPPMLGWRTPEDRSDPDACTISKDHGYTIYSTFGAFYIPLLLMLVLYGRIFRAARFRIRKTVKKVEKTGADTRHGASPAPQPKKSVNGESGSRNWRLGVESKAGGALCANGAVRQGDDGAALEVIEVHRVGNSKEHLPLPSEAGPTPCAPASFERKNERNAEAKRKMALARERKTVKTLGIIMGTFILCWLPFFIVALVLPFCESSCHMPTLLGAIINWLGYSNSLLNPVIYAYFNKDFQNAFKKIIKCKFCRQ

Experiments:
[1] = target: T1, human 5-HT1A receptor (Homo sapiens, UniProt P08908); experiment: Human 5-HT1A radioligand binding assay ([3H]-8-Hydroxy-DPAT); design: expressed in transfected cells; host or cells: HTR1A&Gα15-CHO; settings: read-out: h5-HT1A, IC50
Protocol: The objective of this study was to evaluate the binding properties of test compounds on 5-hydroxytryptamine receptor 1A (5-HT1A).
1. The assay buffer was prepared following Table 21 below.
2. 8 doses of reference and test compounds were prepared starting from 10 mM stock solution as required by 5-fold serial dilutions with 100% (v/v) DMSO.
3. UniFilter-96 GF/B plate was pretreated: • i. 50 μl/well of 0.5% (v/v) PEI was added to UniFilter-96 G F/B plates. The plates were sealed and incubated at 4° C. for 3 hrs. • ii. After incubation, the plates were washed 3 times with ice-cold wash buffer (50 mM Tris, pH7.4).
4. Assay plate was prepared: • i. Cell membrane was diluted with assay buffer and 100 μl/well was added to 96 round well plates to reach a concentration of 20 μg/well. • ii. 8 concentrations of reference or test compounds were prepared and 50 μl/well was added to 96 round deep well plates. • iii. […]
10. The plate was read by using a Microbeta^2 microplate counter.
1. For reference and test compounds, the results were expressed as % Inhibition, using the normalization equation: N=100-100x(U-C2)/(C1-C2), where U is the unknown value, C1 is the average of high controls, and C2 is the average of low controls.
2. The IC50 was determined by fitting percentage of inhibition as a […] of compound concentrations with Hill equation using XLfit. […]

[2] = target: T1, human 5-HT1A receptor; experiment: Human 5HT1A cAMP assay in CHO-K1 cells; format: cell-based; design: expressed in transfected cells; settings: for EC50: cAMP assay with forskolin
Protocol: Compound potency (EC50) and efficacy (Max response) against the human 5-HT1A receptor in stably transfected CHO-K1 cells was determined in a GPCR cell-based cAMP assay.
(§1) Cells were seeded in a total volume of 20 μL into white walled, 384-well microplates and incubated at 37° C. overnight before analysis. Prior to testing, cell plating media was exchanged with 10 μL of Assay buffer (HBSS+10 mM HE P E S). Briefly, intermediate dilution of sample stocks was performed to generate 4×sample in assay buffer. 5 μL of 4×sample+5 μL of 4×forskolin was added to cells and incubated at 37° C. for 30 minutes. Final assay vehicle concentration was 1%. The results are expressed as a percent efficacy relative to the maximum response of the control ligand (serotonin) in Table 27.
as §1, with “HEPES).” for “HE P E S).”, “4×sample +5” for “4×sample+5”, “56.” for “27.”

| SMILES | IC50 ([1]; [3H]-8-Hydroxy-DPAT displacement (Table 22)) | IC50 ([1]; [3H]-8-Hydroxy-DPAT displacement (Table 51)) | EC50 ([2]; CHO-K1 cells (Table 27)) | EC50 ([2]; CHO-K1 cells (Table 56)) | Emax (% of serotonin) ([2]; relative to maximum response of serotonin (Table 27)) | Emax (% of serotonin) ([2]; relative to maximum response of serotonin (Table 56)) |
| --- | --- | --- | --- | --- | --- | --- |
| COc1ccc2[nH]cc(CCN(C)C)c2c1 [Compound 5-MeO-DMT] | 6 nM | 6 nM | – | – | – | – |
| COc1ccc2[nH]cc(CCN(C)C)c2c1 [Compound 5MeO-DMT] | – | – | 12.7 nM | 12.7 nM | 99.98 % of serotonin | 99.98 % of serotonin |
